Reference: ChEMBL document CHEMBL5316282, “Small-Molecule Cyanamide Pan-TEAD·YAP1 Covalent Antagonists” (J Med Chem, 2023)

The chains behind the UniProt entries cited, without tags or fusion partners.
UniProt Q99594, whole entry: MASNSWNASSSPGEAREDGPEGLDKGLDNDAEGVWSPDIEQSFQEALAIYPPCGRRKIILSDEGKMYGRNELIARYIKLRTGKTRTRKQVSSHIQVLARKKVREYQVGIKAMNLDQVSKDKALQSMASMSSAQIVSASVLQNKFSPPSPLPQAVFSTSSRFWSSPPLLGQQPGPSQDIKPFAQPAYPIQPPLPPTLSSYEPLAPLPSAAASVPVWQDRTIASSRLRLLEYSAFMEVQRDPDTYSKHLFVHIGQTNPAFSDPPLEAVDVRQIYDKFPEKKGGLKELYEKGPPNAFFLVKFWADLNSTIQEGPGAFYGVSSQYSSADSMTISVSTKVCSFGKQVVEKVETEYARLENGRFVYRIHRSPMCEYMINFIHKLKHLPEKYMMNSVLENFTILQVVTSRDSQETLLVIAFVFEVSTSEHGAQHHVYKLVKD
UniProt Q15562, whole entry: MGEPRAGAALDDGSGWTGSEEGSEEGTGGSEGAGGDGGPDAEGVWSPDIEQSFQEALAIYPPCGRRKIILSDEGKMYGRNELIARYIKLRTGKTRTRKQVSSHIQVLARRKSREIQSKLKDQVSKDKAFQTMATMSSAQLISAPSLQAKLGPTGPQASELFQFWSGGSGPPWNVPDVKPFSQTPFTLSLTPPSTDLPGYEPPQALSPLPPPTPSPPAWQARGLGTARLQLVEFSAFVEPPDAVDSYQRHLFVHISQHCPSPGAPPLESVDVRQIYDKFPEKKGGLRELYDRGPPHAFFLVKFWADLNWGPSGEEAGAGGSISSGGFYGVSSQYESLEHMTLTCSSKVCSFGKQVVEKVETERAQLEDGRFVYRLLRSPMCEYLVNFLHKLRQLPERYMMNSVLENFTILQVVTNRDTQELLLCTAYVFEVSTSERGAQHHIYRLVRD
UniProt P28347, whole entry: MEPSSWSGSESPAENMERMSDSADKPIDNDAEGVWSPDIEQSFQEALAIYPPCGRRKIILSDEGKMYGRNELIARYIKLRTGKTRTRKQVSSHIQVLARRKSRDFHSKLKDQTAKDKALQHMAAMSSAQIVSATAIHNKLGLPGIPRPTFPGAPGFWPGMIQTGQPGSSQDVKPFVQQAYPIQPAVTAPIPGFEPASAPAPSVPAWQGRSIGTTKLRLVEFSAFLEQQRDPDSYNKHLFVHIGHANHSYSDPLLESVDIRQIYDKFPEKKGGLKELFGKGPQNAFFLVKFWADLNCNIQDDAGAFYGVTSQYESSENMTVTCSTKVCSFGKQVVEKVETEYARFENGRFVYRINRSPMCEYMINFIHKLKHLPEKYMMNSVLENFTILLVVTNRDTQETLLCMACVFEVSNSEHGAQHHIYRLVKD
UniProt Q15561, whole entry: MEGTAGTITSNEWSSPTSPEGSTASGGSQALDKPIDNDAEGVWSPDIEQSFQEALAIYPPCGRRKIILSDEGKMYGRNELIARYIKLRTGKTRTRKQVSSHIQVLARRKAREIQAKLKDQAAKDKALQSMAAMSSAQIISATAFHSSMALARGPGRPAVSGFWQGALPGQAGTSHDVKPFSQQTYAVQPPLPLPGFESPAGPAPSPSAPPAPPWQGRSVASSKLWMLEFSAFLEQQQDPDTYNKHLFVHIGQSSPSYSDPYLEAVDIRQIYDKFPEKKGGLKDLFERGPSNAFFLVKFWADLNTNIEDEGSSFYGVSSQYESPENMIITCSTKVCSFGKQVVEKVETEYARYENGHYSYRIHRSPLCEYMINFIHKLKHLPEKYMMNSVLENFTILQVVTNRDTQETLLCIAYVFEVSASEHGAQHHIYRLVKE
UniProt Q15561, whole entry C367S: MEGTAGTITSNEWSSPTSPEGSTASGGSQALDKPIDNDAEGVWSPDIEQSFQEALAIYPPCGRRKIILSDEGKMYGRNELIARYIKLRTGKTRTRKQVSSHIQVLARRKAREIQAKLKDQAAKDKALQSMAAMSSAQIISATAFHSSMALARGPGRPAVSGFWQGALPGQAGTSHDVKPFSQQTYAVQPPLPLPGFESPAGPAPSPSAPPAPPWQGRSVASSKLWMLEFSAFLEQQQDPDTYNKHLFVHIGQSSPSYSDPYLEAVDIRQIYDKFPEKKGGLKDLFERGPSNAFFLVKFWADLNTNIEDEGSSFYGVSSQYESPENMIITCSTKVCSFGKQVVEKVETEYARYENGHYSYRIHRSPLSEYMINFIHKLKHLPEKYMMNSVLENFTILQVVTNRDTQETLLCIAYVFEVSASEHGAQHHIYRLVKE

Experiments:
[1] = molecular target: Transcriptional enhancer factor TEF-5 (Homo sapiens, UniProt Q99594); settings: dose 0.78-100 µM, time 24.0 hrs
[2] = molecular target: Transcriptional enhancer factor TEF-4 (Homo sapiens, UniProt Q15562); settings: dose 0.78-100 µM, time 24.0 hrs
[3] = molecular target: Transcriptional enhancer factor TEF-1 (Homo sapiens, UniProt P28347); settings: dose 0.78-100 µM, time 24.0 hrs
[4] = molecular target: T1, Transcriptional enhancer factor TEF-3 (Homo sapiens, UniProt Q15561); settings: dose 0.78-100 µM, time 24.0 hrs
[5] = test system: Transcriptional enhancer factor TEF-3 (Homo sapiens), Q15561 [C367S]; assay: Displacement of FAM- labeled YAP1 peptide (60 to 99 residues) from human TEAD4 (217 to 434 residues) C367S mutant expressed in Escherichia coli BL21 (DE3) cells at 0.2 to 100 uM incubated for 24 hrs by fluorescence polarization-based competitive binding assay; settings: dose 0.2-100 µM
[6] = molecular target: T1, Transcriptional enhancer factor TEF-3; assay: Inhibition of TEAD4 (unknown origin) transfected in human HEK293 cells co-transfected with renilla plasmid assessed as maximum inhibition of transcriptional activity at 0.01 to 100 uM incubated for 24 hrs by dual Glo-luciferase reporter assay relative to control; format: cell-based; settings: dose 0.01-100 µM

SMILES	T1/2 [1]	T1/2 [2]	T1/2 [3]	T1/2 [4]	inhibition [5]	Imax [6]
COc1ccc2c(c1Nc1cccc(C(F)(F)F)c1)CN(C#N)C2	21.8 min	3.3 min	990 min	7.5 min	–	–
N#CN1Cc2cccc(Nc3ccccc3C(F)(F)F)c2C1	26.7 min	4.8 min	73.7 min	99 min	–	–
N#CN1Cc2cccc(Nc3cccc(C(F)(F)F)c3)c2C1	4.8 min	–	7.3 min	3.9 min	–	–
N#CN1Cc2cccc(Nc3ccc(C(F)(F)F)cc3)c2C1	5.1 min	6.9 min	4.9 min	301 min	inactive	96.9%
N#CN1Cc2ccc(F)c(Nc3cccc(C(F)(F)F)c3)c2C1	1.9 min	–	3.6 min	–	–	–

Second part, the molecule after the results:

T1/2 [1]	T1/2 [2]	T1/2 [3]	T1/2 [4]	inhibition [5]	Imax [6]	SMILES
365 min	117 min	1160 min	347 min	–	–	N#CN1CC2CCCC(Nc3cccc(C(F)(F)F)c3)C2C1 (centres undefined)
–	–	–	–	inactive	inactive	N#CN1CC2CCCC(Nc3ccc(C(F)(F)F)cc3)C2C1 (centres undefined)
–	92.4 min	–	1050 min	inactive	inactive	N#CN1CC2CCCC(Nc3ccccc3C(F)(F)F)C2C1 (centres undefined)

Calls of active or inactive are those of the source. No cut-off for these calls is given here.
